HDAC3 inhib – HDAC3 deacetylase inhibitors, primary screen, biochemical, fluorescence, cell-free homogeneous | Histone deacetylase 3 (Homo sapiens), O15379 | recombinant HDAC3, fluorogenic peptide/trypsin coupled | inhibition, % at 8.3 µM | 0.15% of 320,000 active | AID 2718, 2010; in the data active = inhibition above about 26%, passing the limit was not always enough
MC4R barr agon – MC4R agonists recruiting beta-arrestin, primary screen, cell-based, luminescence, agonist arm of biased-ligand search. 0.98% of 360,000 active. Melanocortin receptor 4 (Homo sapiens), P32245. activation, % at 8.9 µM. U2OS MC4R beta-arrestin complementation; percent of melanotan II response, DMSO zero;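 active = activation above a per-plate cutoff, the mean activation of sample wells on that plate plus 3 SD, cut at about 8% in these data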
MC4R antagonist – MC4R antagonists of cAMP signaling, primary screen, cell-based, TR-FRET, antagonist arm of biased-ligand search. 0.48% of 360,000 active. Melanocortin receptor 4 (Homo sapiens), P32245. MC4R-expressing cells, MTII-stimulated cAMP, LANCE TR-FRET. inhibition, % at 6.5 µM;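 active = inhibition above its plate's cutoff, the mean of tested wells on that plate plus 3 SD, cut at about 29% in these data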
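system = U2OS cells with stable human MC4R expression | also added = Melanotan II challenge after compound preincubation | dosing = one concentration, 6.5 µM nominal | incubation = compound 30 min, challenge 1 h, detection 1 h | measured by = TR-FRET with Eu-cAMP and labeled anti-cAMP, 671 nm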
Yeast UUG start-1 – alters start codon recognition fidelity in yeast | S. cerevisiae UUG-firefly luciferase reporter, luminescence/redox ratio | activity score, % at 18.7 µM | 350,000 compounds, 0.13% hits | AID 602363;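 active = replicate mean at a twofold rise or more, about +100% in these data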;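 note: firefly luciferase made from a UUG start codon reports start codon fidelity; reporter light over untreated wells divided by growth signal over untreated wells; some hits fall short of that in this replicate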
NALP1 inh – NALP1 inflammasome inhibitors in reconstituted yeast, colorimetric, S. cerevisiae, triplicate retest | S. cerevisiae NALP1/ASC/caspase-1 growth, X-gal OD620, 72 h | inhibition, % at 10 µM | 0.61% of 280,000 active; in the data active = inhibition mostly above about 24%, no sharp cut-off; inactive = mostly below about 32%
ALR H2O2 inh – blocks human ALR sulfhydryl oxidase activity | inhibition, % (no concentration beside the values) | 3.8% of 290,000 active | purified ALR, DTT oxidation, H2O2 HRP-luminol luminescence | AID 485317 | P55789;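 active = mean and each replicate at 75% or more; inconclusive = only one of the two met; inactive = neither met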;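 also: stock transfer was 7.5 nL into about 7.5 µL; 0% = neutral wells and 100% = wells with inactivated enzyme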
cAMP nonselect – nonselective cAMP signaling inhibitors, parental cells, counter-screen for MC4R biased antagonist project, cell-based, TR-FRET, U2OS, forskolin, triplicate. shares compounds with MC4R antagonist. AID 602193, 2012. 26% of 1,600 active. inhibition, % at 6.5 µM. LANCE TR-FRET;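 active = mean inhibition over triplicates above the low-control well mean plus 3 SD, set per campaign, cut at about 13% in these data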;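 also: signal is single emission at 671 nm which falls as cellular cAMP rises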
MC4R cAMP antag – MC4R cAMP antagonists, retest, confirmation, cell-based, TR-FRET | inhibition, % at 6.5 µM | 27% of 1,600 active | shares compounds with MC4R antagonist | MC4R-expressing cells, MTII-stimulated cAMP; in the data active = inhibition above about 29%
MC4R barr conf – MC4R beta-arrestin agonists, retest, confirmation, cell-based, luminescence, U2OS | shares compounds with MC4R barr agon | U2OS MC4R beta-arrestin recruitment; scaled DMSO 0%, Melanotan II 100% | activation, % at 8.9 µM | 31% of 2,400 active;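 active = mean activation across replicates above the hit cutoff set in the earlier primary screen, cut at about 8% in these data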
MOR DOR agonist – agonists of MOR-DOR heterodimerization, counter-screen for MC4R biased agonist project, cell-based, luminescence. shares compounds with MC4R barr agon. U2OS PathHunter beta-arrestin, beta-gal luminescence; percent of deltorphin B response, DMSO zero. activation, % at 9.2 µM. 5.8% of 2,400 active;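 active = mean activation across replicates exceeds the hit threshold derived in the earlier primary screen, cut at about 18% in these data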
Yeast UUG start-2 – enhancers of UUG start codon usage in yeast, dose response, S. cerevisiae, UUG firefly luciferase, cherry-pick, set 2 | shares compounds with Yeast UUG start-1 | luminescence, 4 h; 100% means double the DMSO signal | activation, % at 38 µM | 540 tested, under 10 active;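 active = signal increase whose fitted curve reaches an absolute level of 40 at a concentration under 10 µM; inactive = activity opposite to the expected increase, or the rest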
Hits are given with their value; – = inactive; · = not tested or not shown. Rows were chosen to be rich in hits. Some 4.2% of all compounds tested hit in one or more screens of this group.

Amino acid sequences for entries named in this document (tags omitted).
Melanocortin receptor 4 (Homo sapiens), P32245, UniProt P32245, whole entry, looked up: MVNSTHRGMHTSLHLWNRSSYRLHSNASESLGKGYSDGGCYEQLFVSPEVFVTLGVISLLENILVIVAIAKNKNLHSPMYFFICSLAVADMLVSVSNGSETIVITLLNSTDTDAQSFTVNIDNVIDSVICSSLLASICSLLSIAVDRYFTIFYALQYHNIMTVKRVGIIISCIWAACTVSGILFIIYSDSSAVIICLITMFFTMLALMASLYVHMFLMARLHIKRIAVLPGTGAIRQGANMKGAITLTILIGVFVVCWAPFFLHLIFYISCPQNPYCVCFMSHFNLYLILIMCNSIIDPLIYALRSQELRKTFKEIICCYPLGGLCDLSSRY

SMILES | HDAC3 inhib | MC4R barr agon | MC4R antagonist | Yeast UUG start-1 | NALP1 inh | ALR H2O2 inh | cAMP nonselect | MC4R cAMP antag | others
CCOC(=O)c1c(-n2c(C)cc(C=C3C(=O)NC(=O)NC3=O)c2C)sc2c1CCCC2 | – | – | 30.0 | – | – | – | – | –
COc1cccc(C(=O)C2CCCN(Cc3ccc4nonc4c3)C2)c1 (stereo unspecified) | – | – | – | · | – | – | · | ·
COc1cccc(C(=O)C2CCCN(Cc3cccc4c3OCO4)C2)c1 (stereo unspecified) | – | – | 29.1 | · | – | – | – | –
CCOc1cc2[nH]c(=S)n(CCCC(=O)N3CCC4(CC3)OCCO4)c(=O)c2cc1OCC | – | – | 29.0 | – | · | – | – | –
O=C(Cc1ccccc1)N1CCCCN2[C@H](CO)[C@@H](c3ccc(-c4ccccc4)cc3)[C@H]2C1 | · | · | · | – | · | · | · | ·
N#Cc1cccc(-c2ccc([C@@H]3[C@H]4CN(C(=O)Cc5cccnc5)CCCCN4[C@H]3CO)cc2)c1 | · | · | · | – | · | · | · | ·
CC/C(=N\Nc1ccccc1)c1c(O)n(-c2ccc(OC)cc2)c(=O)[nH]c1=O | – | – | 33.0 | · | – | 98.7 | – | –
CN1[C@@H]2CNc3ccccc3[C@@H]2[C@@H]1CO | · | · | · | – | · | · | · | ·
COc1ccc(CN2Cc3cnnn3-c3ccccc3C2C#N)cc1 (stereo unspecified) | · | – | 32.3 | – | · | · | – | –
N#CC1c2ccccc2-n2nncc2CN1Cc1cc(Cl)cc(Cl)c1 (stereo unspecified) | · | – | – | – | · | · | · | ·
C/C=C/c1ccc([C@@H]2[C@@H](CO)N3CCCCN(C(=O)Cc4ccncc4)C[C@@H]23)cc1 | · | · | · | – | · | · | · | ·
O=C1NC(=O)C(=Cc2ccc(-c3cc(Cl)ccc3[N+](=O)[O-])o2)C(=O)N1 | · | – | – | · | – | · | · | ·
O=C1NC(=O)C(=Cc2ccc(SC3CCCCC3)o2)C(=O)N1 | – | – | 37.7 | · | – | – | – | –
Cc1ccccc1-c1ccc([C@@H]2[C@@H](CO)N3CCCCN(C(=O)Cc4ccccn4)C[C@@H]23)cc1 | · | · | · | – | · | · | · | ·
CC1=C(O)C(=O)C=C2C1=CC=C1C2(C)CCC2(C)C3CC(C)(C(=O)O)CCC3(C)CCC12C (stereo unspecified) | · | – | 32.4 | · | · | · | – | –
C=C1C(=O)OC2CC3(C)OC3CCC(C)=CC(OC(C)=O)C12 (stereo unspecified) | · | – | – | · | · | · | · | ·
C=C1C(=O)OC2CC3(C)OC3C3OC3C3=CC(OC3=O)C12 (stereo unspecified) | · | – | 42.8 | – | · | · | 19.2 | 32.5
CC(C)CC#Cc1ccc([C@@H]2[C@H]3CN(C(=O)Cc4ccccn4)CCCCN3[C@H]2CO)cc1 | · | · | · | – | · | · | · | ·
Cc1ccc(N2C(=O)NC(=O)/C(=C/c3ccoc3)C2=O)cc1 | · | – | 32.8 | · | · | · | – | –
Cc1ccc(N2C(=O)NC(=O)/C(=C/c3cnn(-c4ccc(C)cc4)c3)C2=O)cc1 | – | – | – | – | – | – | · | ·
C[C@]12CC[C@@H](O)CC1=CCC1C2CC[C@]2(C)C(=O)[C@H](F)CC12 (stereo partly specified) | – | – | – | – | · | – | · | ·
CC12CCC3C(CC=C4CC(O)CCC43C)C1C/C(=C\c1cccc(F)c1)C2=O (stereo unspecified) | – | 13.8 | – | – | – | – | · | · | MC4R barr conf=–;MOR DOR agonist=–
CN(C)CC#Cc1ccc([C@H]2[C@@H](CO)N3CCCCN(C(=O)Cc4ccccn4)C[C@H]23)cc1 | · | · | · | – | · | · | · | ·
O=C1CN=C(c2ccc(Cl)cc2)c2oc3ccccc3c2N1 | – | 11.1 | – | – | · | · | · | · | MC4R barr conf=–;MOR DOR agonist=–
O=c1[nH]cnc2nc(-c3ccc(N(CCCl)CCCl)cc3)[nH]c12 | · | 9.8 | – | – | · | · | · | · | MC4R barr conf=13.1;MOR DOR agonist=18.9
SMILES | HDAC3 inhib | MC4R barr agon | MC4R antagonist | Yeast UUG start-1 | NALP1 inh | ALR H2O2 inh | cAMP nonselect | MC4R cAMP antag | others
O=C(Cc1ccncc1)N1CCCCN2[C@H](CO)[C@@H](c3ccc(-c4ccncc4)cc3)[C@H]2C1 | · | · | · | – | · | · | · | ·
COc1ccc(-c2ccc([C@@H]3[C@@H](CO)N4CCCCN(C(=O)Cc5ccncc5)C[C@@H]34)cc2)cc1 | · | · | · | – | · | · | · | ·
CCCCOC(=O)COc1cc(C)cc2oc(=O)c3c(c12)CCC3 | – | – | – | – | – | – | · | ·
C=CCOC(=O)COc1cc(C)cc2oc(=O)c3c(c12)CCC3 | – | 11.3 | – | – | – | – | · | · | MC4R barr conf=9.0;MOR DOR agonist=–
Cc1cc2oc(=O)cc(-c3cc4ccccc4o3)c2cc1OC(=O)N(C)C | – | 16.5 | – | – | – | – | · | · | MC4R barr conf=–;MOR DOR agonist=–
CCCCOC(=O)C1=C(N)OC2=C(C(=O)CCC2)[C@]12C(=O)Nc1ccccc12 | – | – | – | 125.3 | – | – | · | · | Yeast UUG start-2=–
O=C(Nc1ccccc1Cl)OC1CN2CCC1CC2 (stereo unspecified) | – | – | – | · | – | – | · | ·
O=C(Nc1ccccc1F)OC1CN2CCC1CC2 (stereo unspecified) | – | – | – | 165.2 | – | – | · | · | Yeast UUG start-2=–
C/C=C/c1ccc([C@@H]2[C@H]3CN(C(=O)Cc4cccnc4)CCCCN3[C@H]2CO)cc1 | · | · | · | – | · | · | · | ·

Screening results deposited in PubChem by several laboratories.
